Test results from US10568834B2, “Delivery systems for propofol” (Yissum Research Development Company of the Hebrew …, priority 2015, dated 2020).

Test system: defibrinated sheep blood
Details: 10 μl on TSA 5% DSB plates, up to 24 hours

Triton X100
Blood hemolysis: causing hemolysis
